An excerpt weighted towards active compounds, which were near 2.8% of everything screened.
Yeast UUG start = modulators of start codon recognition fidelity in yeast; AID 602363; hit rate 0.13% among 350,000; activity score, % at 18.7 µM; S. cerevisiae UUG-firefly luciferase reporter, luminescence/redox ratio;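 active = replicate mean at a twofold rise or more, about +100% in these data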;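 note: firefly luciferase made from a UUG start codon reports start codon fidelity; reporter light over untreated wells divided by growth signal over untreated wells; some hits fall short of that in this replicate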
PglD DTNB = C. jejuni PglD acetyltransferase inhibitors, primary screen, biochemical, DTNB colorimetric, single point | purified PglD enzyme, DTNB colorimetric CoA detection | UDP-N-acetylbacillosamine N-acetyltransferase PglD (Campylobacter jejuni) | inhibition, % at 12.5 µM | 0.098% of 360,000 active | AID 602405, 2012; in the data active = inhibition above about 16%, passing the limit was not always enough; inconclusive = no clear call, values can overlap the other calls
esBAF inh = Bmi1 luciferase reporter increase in mESCs, primary screen, esBAF inhibitor project, mouse ES cells, Bmi1 luciferase knock-in, single point | 24 h; 100% = twice the neutral-well signal | reporter increase, % at 12.5 µM | 2% of 350,000 active | AID 602393, 2012; in the data active = activation above about 40%; inconclusive = no clear call, values can overlap the other calls;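 note: a rise in the Bmi1 reporter signal indicates esBAF inhibition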
E-sel inducer = E-selectin induction in HUVECs, primary screen, imaging, HUVEC, immunofluorescence imaging, single point; AID 686992, 2013; P16581; normalized: neutral wells 0, TNF-alpha wells 100; 0.37% of 260,000 active; activation, % at 7.58 µM;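 active = mean E-selectin-positive cell signal at least 10% of the positive control, reached in at least 60% of replicates, without over 20% cell loss; inconclusive = no rule given, readout overlaps actives, possibly toxicity-flagged; inactive = the rest, including those meeting only one limit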
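Assay system: HUVEC, human umbilical vein endothelial cells / Amount: 3,000 HUVEC/well / Controls: TNF-alpha positive control, DMSO neutral control / Compound dosing: single concentration / Medium: EGM-2 over gelatin coat / Evaluation: percent E-selectin-positive cells / Signal: immunofluorescence imaging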
Statin myotox sup = suppressors of statin myotoxicity in C2C12 myotubes, primary screen, cell-based, single point, plate reader; C2C12 myotubes + simvastatin, ATP luminescence, 48 h; scaled: DMSO 0, geranylgeraniol control 100; rescue of ATP level, % at 7.49 µM; 0.78% of 330,000 active;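 active = mean ATP rescue above about 67%, or every replicate alone reaching that limit, limit read from the data, passing the limit was not always enough; inconclusive = no clear call, values can overlap the other calls; inactive = mean under the limit and some replicate under it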;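 note: myotubes were challenged with 10 µM simvastatin during compound exposure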
PGC1a acetyl inh = inhibitors of PGC1a acetylation signal, primary screen, cell-based, U2OS, AlphaScreen, inhibitor mode; AlphaScreen anti-acetyl-lysine; with virally co-expressed GCN5 acetyltransferase; inhibition, % at 15.6 µM; 0.17% of 350,000 active; AID 651687, 2012;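 active = every replicate shows inhibition of at least 40%; inconclusive = mean inhibition at least 40% but some replicate below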
A number is an active result; - = inactive; ? = inconclusive; . = no result given.

SMILES	Yeast UUG start	PglD DTNB	esBAF inh	E-sel inducer	Statin myotox sup	PGC1a acetyl inh
CC(C)N(CCC#N)C(=O)Nc1ccc2c(c1)CCO2	.	.	.	74	.	-
C[C@@H]1CN([C@@H](C)CO)C(=O)c2cccc(NC(=O)C3CCCCC3)c2O[C@@H]1CN(C)S(=O)(=O)c1ccc(F)cc1	-	-	-	-	-	-
COc1ccc(N=Nc2ccc(N)nc2N)cc1	-	-	-	-	-	.
COc1ccc(N=Nc2cc(OC)c(N)cc2OC)cc1	-	-	51	-	-	-
COc1ccc(S(=O)(=O)N[C@@H]2CC[C@@H](CC(=O)NCCc3ccncc3)O[C@H]2CO)cc1	-	-	-	-	-	-
CCn1c(CCC(=O)O)nc2cc(S(=O)(=O)N3CCOCC3)ccc21	-	-	-	117	-	-
CCOC(=O)c1ccc(NC(=O)c2nn(CC)cc2Br)cc1	-	-	-	.	-	-
CCOC(=O)N1CCN(C(=S)NC(=O)c2nn(C)cc2Br)CC1	-	-	-	.	125	-
CCOC(=O)c1ccc(NC(=O)c2nn(C)cc2Br)cc1	-	-	51	.	-	-
C/C=C/c1ccccc1[C@H]1[C@@H](C#N)N(S(=O)(=O)c2cccc(F)c2)[C@H]1CO	.	.	.	-	.	-
COC(=O)c1ccc(N2OC3(C)C=CC2CC3)cc1 (stereo not drawn)	-	-	63	-	-	.
COC(=O)c1ccc(N2C(=O)CC(N3CCOCC3)C2=O)cc1 (stereo not drawn)	-	-	-	.	-	-
C[C@H](CO)N1C[C@H](C)[C@H](CN(C)C(=O)Nc2ccc(C(F)(F)F)cc2)Oc2ccc(NC(=O)Nc3ccc(F)cc3)cc2C1=O	-	.	-	-	.	-
C=CCc1ccccc1OCCCCN1CCCC1	-	-	-	.	80	-
CCc1ccccc1OCCCCN1CCCC1	-	-	-	.	.	-
O=C1c2ccccc2-n2c1nc1ccccc1c2=O	-	-	45	.	-	-
O=c1c2ccccc2nc2n1-c1ccccc1CCC2	-	-	-	.	-	-
COc1cc(C(=O)N2CCNCC2)cc(OC)c1OC	-	-	-	.	-	.
COc1ccc(C(=O)N2CCN(C(=O)c3cc(OC)c(OC)c(OC)c3)CC2)cc1	-	-	-	.	108	-
Clc1ccccc1CN1CCSCC1	-	-	-	-	-	47
CCCCCCOc1ccc(OCC(O)CN2C(=O)NC(C)(C)C2=O)cc1 (stereo not drawn)	-	-	46	.	-	-
O=C(/C=C/Nc1cccc([N+](=O)[O-])c1)c1cccs1	-	-	73	.	-	-
Cc1cc(N/C=C/C(=O)c2cccs2)ccc1F	-	-	69	.	-	-
Cc1ccc(N/C=C/C(=O)c2cccs2)cc1C	-	-	.	.	.	-
CC1Cc2nc(SCC(=O)Nc3ccc4c(c3)OCCO4)n(C)c(=O)c2S1 (stereo not drawn)	-	-	-	.	-	-
SMILES	Yeast UUG start	PglD DTNB	esBAF inh	E-sel inducer	Statin myotox sup	PGC1a acetyl inh
COCCn1c(SCC(=O)Nc2ccc3c(c2)OCCO3)nc2c(c1=O)SC(C)C2 (stereo not drawn)	-	-	47	-	-	-
CC1Cc2nc(SCC(=O)Nc3ccc4c(c3)OCO4)n(Cc3ccccc3)c(=O)c2S1 (stereo not drawn)	-	-	64	.	-	-
C[C@H](CO)N1C[C@H](C)[C@@H](CN(C)S(=O)(=O)c2ccc(Cl)cc2)Oc2ccc(NS(=O)(=O)c3ccc(F)cc3)cc2CC1=O	-	-	-	59	-	-
C[C@@H]1CN([C@H](C)CO)C(=O)Cc2cc(NC(=O)Nc3ccc(F)cc3)ccc2O[C@@H]1CN(C)S(=O)(=O)c1ccc(Cl)cc1	-	-	-	35	-	-
C[C@@H]1CN([C@H](C)CO)C(=O)Cc2cc(NS(=O)(=O)c3ccc(Cl)cc3)ccc2O[C@@H]1CN(C)S(=O)(=O)c1ccc(F)cc1	-	-	-	-	-	-
C[C@H](CO)N1C[C@H](C)[C@H](CN(C)S(=O)(=O)c2ccc(Cl)cc2)Oc2ccc(NS(=O)(=O)c3ccc(F)cc3)cc2CC1=O	-	-	-	92	-	-
C[C@@H]1CN([C@@H](C)CO)C(=O)Cc2cc(NC(=O)Nc3ccc(F)cc3)ccc2O[C@@H]1CN(C)S(=O)(=O)c1cn(C)cn1	.	.	-	73	-	-
C[C@H]1CN([C@@H](C)CO)C(=O)Cc2cc(NC(=O)Nc3ccc(F)cc3)ccc2O[C@@H]1CN(C)S(=O)(=O)c1cn(C)cn1	.	.	-	-	-	-
C[C@H](CO)N1C[C@H](C)[C@H](CN(C)CC2CC2)Oc2c(NC(=O)c3nc4ccccc4s3)cccc2C1=O	-	-	-	-	-	-
CC(=O)C(Sc1nc(N(C)C)nc(N(C)C)n1)C(=O)Nc1ccccc1 (stereo not drawn)	-	-	-	-	-	-
CC(=O)C(Sc1nn(C)c(=S)s1)C(=O)Nc1ccccc1 (stereo not drawn)	-	-	77	.	-	-
Cc1cccc(Nc2ncc3c(n2)CC(C)CC3=O)c1 (stereo not drawn)	-	-	51	.	-	-
Cc1ccc(Nc2ncc3c(n2)CC(c2ccco2)CC3=O)c(C)c1 (stereo not drawn)	-	-	54	.	-	-
Cc1cccc(Nc2ncc3c(n2)CC(c2ccco2)CC3=O)c1 (stereo not drawn)	-	-	-	.	-	-
COCC(=O)N(C)C[C@H]1Oc2cc(C#CCC(C)C)ccc2S(=O)(=O)N([C@H](C)CO)C[C@@H]1C	-	-	-	-	-	-
Cc1ccccc1NC(=O)c1ccc2c(c1)OCCO2	-	-	47	.	-	-
N#Cc1ccccc1NC(=O)c1ccc2c(c1)OCCO2	-	-	45	.	-	.
N#Cc1ccccc1NC(=O)COC(=O)c1ccc2c(c1)OCCO2	-	-	-	.	-	.
Cc1cccc(NC(=O)c2ccc3c(c2)OCCO3)c1C	-	-	55	.	-	-
COc1cc(NC(=O)c2ccc3c(c2)OCO3)c2ncccc2c1	-	-	?	.	-	-
O=C(Nc1cccc2cccnc12)c1ccc2c(c1)OCCO2	-	-	48	.	-	-
COc1ccc(S(=O)(=O)Nc2ccc3c(c2)C(=O)N([C@@H](C)CO)C[C@H](C)[C@H](CN(C)S(=O)(=O)c2ccc(F)cc2)OCCCC[C@H](C)O3)cc1	-	-	-	-	174	-
COc1ccc(S(=O)(=O)Nc2ccc3c(c2)C(=O)N([C@H](C)CO)C[C@@H](C)[C@@H](CN(C)S(=O)(=O)c2ccc(F)cc2)OCCCC[C@H](C)O3)cc1	-	-	-	-	141	-

High-throughput results deposited in PubChem by Broad Institute.
